The conditions of the data set: female, Fischer 344, rat, in vivo, iv, 10 mg/kg.

Turning to `CC[C@@]1(O)C(=O)OCc2c1cc1n(c2=O)Cc2cc3c(CN(C)C)c(O)ccc3nc2-1` [TPT, 9-amino-dimethyl-10-hydroxycamptothecin], the Vss/F was determined as 1790.14 ± 348.83 mL.
